Earlier results in patent US20020173640A1, “ADAM polynucleotides, polypeptides, and antibodies” (Human Genome Sciences, Inc., priority 1999, published 2002).

Sequences of proteins named here, by UniProt entry; tags and fusion partners are left off. Residues count along the entry.
UniProt P08254, 100-477: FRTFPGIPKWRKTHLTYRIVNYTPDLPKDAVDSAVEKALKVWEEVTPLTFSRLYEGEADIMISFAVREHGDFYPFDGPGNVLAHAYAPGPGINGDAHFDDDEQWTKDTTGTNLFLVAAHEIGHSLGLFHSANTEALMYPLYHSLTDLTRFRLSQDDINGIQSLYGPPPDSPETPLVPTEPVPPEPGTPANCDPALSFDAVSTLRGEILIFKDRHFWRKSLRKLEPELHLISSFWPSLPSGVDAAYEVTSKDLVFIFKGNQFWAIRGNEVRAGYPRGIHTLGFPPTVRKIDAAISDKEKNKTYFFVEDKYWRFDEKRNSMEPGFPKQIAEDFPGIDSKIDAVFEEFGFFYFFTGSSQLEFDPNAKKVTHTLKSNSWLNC

Biological target: MMP-3 (Homo sapiens, UniProt P08254)
Conditions: commercial (CALBIOCHEM) inhibitor data; read-out: K1 against MMP-3; cited from earlier work

For `COc1ccc(S(=O)(=O)N(CC(=O)NO)CC(C)C)cc1` [MMP-3 inhibitor II, N-Isobutyl-N-(4-methoxyphenylsulfonyl)-glycylhydroxamic acid], the Ki is listed as 130 nM.
